From patent US6987127B2, “Regulation of NAD(P)H oxidase growth and transcription in melanoma cells” (Charlotte-Mecklenburg Hospital Authority, priority 2001, dated 2006) come the findings set out here.

The test system of one assay is M1619 melanoma cells. The conditions noted are these: pretreatment 15 minutes, 50 μmol/L.
Assay [1] deals with membrane NAD(P)H oxidase of M1619 melanoma cells. As to the kind of experiment: SOD-inhibitable lucigenin chemiluminescence (O2- generation) by 100,000 g plasma membrane fraction. It is filed as biochemical, human. The conditions noted are these: 50 μmol/L, 15 μg membrane protein, 100 μmol/L NADPH, no cytosol, 5 minutes.

As for `c1ccc2c(c1)[I+]c1ccccc1-2` [DPI, diphenylene iodonium], the “Median fluorescence (DCFH oxidation to DCF)” value in the assay on M1619 melanoma cells (untreated 685) is reported as 355. Further, in the assay on M1619 melanoma cells (untreated 754), the “Mean fluorescence (DCFH oxidation to DCF)” value is listed as 408. The “Lucigenin chemiluminescence of membranes + NADPH” value in assay [1] was “significantly inhibited”.
Regarding `O=c1oc2ccccc2c(O)c1Cc1c(O)c2ccccc2oc1=O` [dicumarol], in assay [1], the “Lucigenin chemiluminescence of membranes + NADPH” value is on record as “reduced”.
